Reference: patent publication US11927585B2, “Solvent-based inks and coatings for food contact applications” (SUN CHEMICAL CORPORATION, priority 2020, dated 2024)
Marks after values point to notes of the source that are not given here.

Columns and labels:
[1] = Migration testing, 3% acetic acid at 20° C., GC-MS; conditions: from print of ink SBDEV977 (Ex. 4A Yellow), 2.0 g/m^2, 10 days, ND = not detected, asterisk = exceeds SML
[2] = Evaluation of empirical migration levels against SML in the exposure scenarios (adjusted migration, coverage restriction); conditions: from SBDEV977; for empirical migration level in the packaging scenario (of the SML): Application 1 (Yoghurt lids), 39% of EU Cube exposure; for true migration value in the packaging scenario (of the SML): highest measured migration value
[3] = Migration testing, 50% ethanol at 20° C., GC-MS; conditions: from print of ink SBDEV977 (Ex. 4A Yellow), 2.0 g/m^2, 10 days; ND = not detected
[4] = Migration testing, hot fill boiled water test, GC-MS; conditions: from print of ink SBDEV977 (Ex. 4A Yellow), water at 100° C. then cooled about 1 hour, ND = not detected, asterisk = exceeds SML

CCCCOP(=O)(OCCCC)OCCCC
Analytically measured migration (% SML) 3% acetic acid 20° C. [1]: 178* % SML
Analytically measured migration (% SML) 3% acetic acid 20° C. ([1]; listed as Tributyl phosphate): 178 % SML
empirical migration level in the packaging scenario (of the SML) ([2]; 3% acetic acid at 20° C. test): 69%
empirical migration level in the packaging scenario (of the SML) ([2]; hot filled boiled water test): 78%
true migration value in the packaging scenario (of the SML) ([2]; Application 2 (Wrap covering cheese), 144% of EU Cube exposure): 288%
true migration value in the packaging scenario (of the SML) ([2]; Application 3 (Coffee capsules), upper end 152% of EU Cube exposure): 304%
Analytically measured migration (% SML) 50% EtOH 20° C. [3]: 46 % SML
Analytically measured migration (% SML) Hot fill boiled water [4]: 200* % SML
Analytically measured migration (% SML) Hot fill boiled water ([4]; listed as Tributyl phosphate): 200 % SML
